Measurements from PMC6779874, “ACT001, a novel PAI-1 inhibitor, exerts synergistic effects in combination with cisplatin by inhibiting PI3K/AKT pathway in glioma” (Cell Death & Disease, 2019).

By UniProt entry, the sequences of proteins in these tests, tags left out. Residues count along the entry.
UniProt P05121, 24-402: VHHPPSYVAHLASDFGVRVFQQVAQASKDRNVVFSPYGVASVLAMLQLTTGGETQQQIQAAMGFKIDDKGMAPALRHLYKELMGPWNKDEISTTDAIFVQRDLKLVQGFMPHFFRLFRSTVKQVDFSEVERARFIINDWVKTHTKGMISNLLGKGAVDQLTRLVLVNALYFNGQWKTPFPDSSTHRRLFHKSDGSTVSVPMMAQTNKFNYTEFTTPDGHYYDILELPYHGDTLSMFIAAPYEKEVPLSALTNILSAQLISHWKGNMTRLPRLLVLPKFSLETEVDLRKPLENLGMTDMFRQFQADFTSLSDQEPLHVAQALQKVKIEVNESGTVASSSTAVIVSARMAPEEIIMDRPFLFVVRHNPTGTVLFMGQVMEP

Molecular target: PAI-1 (plasminogen activator inhibitor-1) (Homo sapiens, UniProt P05121)
Test: biochemical
Design: gene SERPINE1

How did the Kd turn out when O=C(O)C(=O)c1cn(Cc2ccccc2)c2ccc(-c3ccc(OC(F)(F)F)cc3)cc12 [PAI-039] was run?
Its Kd is 4.51 µM.
